Source: patent US20200164078A1, “APPLICABLE CHEMICAL COMPOSITION COMPRISING AN AGENT CONJUGATED TO A HYDROPHOBIC MOIETY AND A CARRIER” (TECHNISCHE UNIVERSITEIT EINDHOVEN, priority 2017, published 2020)
“Also recorded” adds a separate entry of the source.

How the values were obtained:
CC531 cells = assay: Release and toxicity: MTT on cells incubated below drug-loaded hydrogel inserts; settings: 10 wt % UPy-PEG10k hydrogel, total 1.8 mM
[1] = Release from 10 wt % bifunctional UPy-PEG10k hydrogel into PBS; type: physicochemical
Experimental: The UPy-PEG10k liquid carrier composition was prepared by dissolving the UPy-PEG10k powder in PBS at elevated pH by stirring at 70° C. for 1 h using a magnetic stirrer (e.g. 10 mg in 90 μl PBS pH 11.7 for a 10 wt % hydrogel). Afterwards the viscous solution was cooled to RT with a resulting pH of approximately 9.0. MPC was added from 30 mM DMSO stock solution to final concentrations of 3 mM or 0.3 mM, resulting in a maximum of 10% DMSO in the final product. The obtained composition is a liquid composition at this pH.
A liquid carrier composition comprising MPC was prepared as described in example 4. […] 100 μL of the solutions were transferred to Millicell hanging cell culture inserts (PIEP12R48/MCEP24H48) and immediately placed in a 24-well plate with 600 μL PBS per well. Contact with the neutral PBS through the membrane of the insert results in gelation of the liquid carrier, forming the hydrogel. At set time-points the PBS was refreshed and the removed PBS was analyzed for MMC or MPC content. Analysis was performed by measuring UV absorption and converted to concentration via predetermined standard curves. MPC gels were removed from the inserts after approximately two weeks by removing the membrane of the insert and gently pushing the still intact gel out. Gels were then dissolved in 1 mL basic PBS and after complete dissolution the concentration of MPC remaining in the gel was determined. […] On the contrary, MPC is released from the hydrogel in a controlled way over two weeks (FIG. 5B). […]. Release of MPC can be correlated to the erosion of the hydrogel. The initial goal to couple cholesterol to MMC to slow down the release from the hydrogel is accomplished hereby.

[2] = Stability measurements by UV absorption in PBS; settings: 200 mg/L, day 0-13

## Mitomycin-PEG24-Cholesterol [MPC]
CC531 cells
  Cytotoxicity after release from hydrogel, short term (immediately / first day): barely an effect
  Duration of cytotoxic effect after release from hydrogel: ≥ 18 days
CC531 cells; gels transferred to freshly seeded cells
  Cytotoxicity after release from hydrogel, long term (after a few days up to 18 days): long term cytotoxicity
[1]; 0.3 mM in gel, Gel Dissolved (after approximately two weeks, including compound remaining in gel)
  Release (%): 95.21%
[1]; 0.3 mM in gel, time 0.04 day
  Release (%): 3.28%
[1]; 0.3 mM in gel, time 0.21 day
  Release (%): 5.35%
[1]; 0.3 mM in gel, time 0.88 day
  Release (%): 8.33%
[1]; 0.3 mM in gel, time 5.83 day
  Release (%): 13.43%
[1]; 0.3 mM in gel, time 14.00 day
  Release (%): 26.12%
[1]; 3 mM in gel, Gel Dissolved (after approximately two weeks, including compound remaining in gel)
  Release (%): 93.33%
[1]; 3 mM in gel, time 0.13 day
  Release (%): 3.20%
[1]; 3 mM in gel, time 0.88 day
  Release (%): 6.63%
[1]; 3 mM in gel, time 2.92 day
  Release (%): 10.84%
[1]; 3 mM in gel, time 8.00 day
  Release (%): 18.31%
[1]; 3 mM in gel, time 15.83 day
  Release (%): 26.41%
[1]; 10 wt % UPy-PEG10k hydrogel
  Duration of controlled release from the hydrogel: two weeks
[2]; pH 6.5, 37° C.
  Stability (UV absorption spectra): almost no degradation; also recorded: stable over time
[2]; pH 7.4, 4° C.
  Stability (UV absorption spectra): stable
[2]; pH 7.4, 37° C.
  Stability (UV absorption spectra): stable
